Chains of the proteins cited; added tags and fusions are not shown.
UniProt P35372, whole entry: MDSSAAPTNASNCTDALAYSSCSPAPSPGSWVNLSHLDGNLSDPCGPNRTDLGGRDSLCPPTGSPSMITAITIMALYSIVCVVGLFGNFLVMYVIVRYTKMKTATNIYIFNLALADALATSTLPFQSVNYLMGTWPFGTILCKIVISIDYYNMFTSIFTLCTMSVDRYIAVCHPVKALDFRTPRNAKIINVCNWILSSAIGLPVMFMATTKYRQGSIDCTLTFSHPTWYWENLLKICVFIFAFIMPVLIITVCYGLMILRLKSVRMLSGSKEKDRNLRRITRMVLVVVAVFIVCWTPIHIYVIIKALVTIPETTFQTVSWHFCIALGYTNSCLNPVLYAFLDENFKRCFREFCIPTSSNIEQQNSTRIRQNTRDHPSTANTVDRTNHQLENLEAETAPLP

In article PMC4552603 (Pharmacology, biochemistry, and behavior, 2015):

Molecular target: human mu receptor (Homo sapiens, UniProt P35372)
Format: cell-based
Details: 10 μM, live confocal imaging over 10 min

## DAMGO
  βarr2 recruitment (qualitative): robust recruitment of βarr2
